Results: PMC6127270 (Frontiers in Pharmacology, 2018)

Chains of the proteins cited; added tags and fusions are not shown. Lines headed by an entry give the natural chain unless they say otherwise; changes in a name come on top.
UniProt P41145: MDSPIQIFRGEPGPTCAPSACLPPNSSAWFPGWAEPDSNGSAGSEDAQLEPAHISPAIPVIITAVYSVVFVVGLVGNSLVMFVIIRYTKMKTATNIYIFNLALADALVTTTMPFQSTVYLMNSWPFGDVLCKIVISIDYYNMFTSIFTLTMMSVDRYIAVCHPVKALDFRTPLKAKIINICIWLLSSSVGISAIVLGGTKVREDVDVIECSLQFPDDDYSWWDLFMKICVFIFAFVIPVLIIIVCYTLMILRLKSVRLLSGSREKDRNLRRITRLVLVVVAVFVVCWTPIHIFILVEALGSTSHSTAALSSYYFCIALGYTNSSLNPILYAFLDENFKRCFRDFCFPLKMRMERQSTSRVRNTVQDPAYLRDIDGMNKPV

Molecular target: human KOR (Homo sapiens, UniProt P41145)
Experiment: [35S]GTPγS binding, CHO-hKOR membranes
Type: biochemical

“5α,7α,8β-(-)N-methyl-N-[7-(1-pyrrolidinyl)-1-oxaspiro(4,5) dec-8-yl]benzeneacetamide” was tested, and the EC50 (read-out: [35S]GTPγS Binding KOR EC50, CHO-hKOR membranes) was 16.7 nM and the “[35S]GTPγS Binding KOR % stim.” value (relative to U69,593) was 100%.
